Measurements as given in patent US10280139B2, “Cytotoxic peptides and conjugates thereof” (priority 2014, dated 2019).
Entries after “also recorded” stand apart in the source; their conditions may differ.

Assay: ADC pharmacokinetic study in non-tumor bearing mice (anti-hIgG and anti-MMAF ELISA)
[1] = single dose 1 mg/kg, plasma over three weeks

Structure (SMILES)	Payload/linker stability in circulation (anti-MMAF versus anti-hIgG assay, words) [1]	also measured
CC[C@H](C)[C@@H]([C@@H](CC(=O)N1CCC[C@H]1[C@H](OC)[C@@H](C)C(=O)N[C@@H](Cc1ccccc1)C(=O)NCCOCCN1C(=O)C=CC1=O)OC)N(C)C(=O)[C@@H](N=C(N(C)C)N(C)C)C(C)C [CL-12, (S)-N-((3R,4S,5S)-1-((S)-2-((3R,4R,7S)-7-Benzyl-14-(2,5-dioxo-2,5-dihydro-1H-pyrrol-1-yl)-4-methyl-5,8-dioxo-2,12-dioxa-6,9-diazatetradecan-3-yl)pyrrolidin-1-yl)-3-methoxy-5-methyl-1-oxoheptan-4-yl)-2-((bis(dimethylamino)methylene)amino)-N,3-dimethylbutanamide]	stable in circulation in mice	
CC[C@H](C)[C@@H]([C@@H](CC(=O)N1CCC[C@H]1[C@H](OC)[C@@H](C)C(=O)N[C@@H](Cc1ccccc1)C(=O)NS(=O)(=O)CCCn1cc(CON)nn1)OC)N(C)C(=O)[C@@H](N=C(N(C)C)N(C)C)C(C)C [CL-22, (S)-2-((Bis(dimethylamino)methylene)amino)-1-(((3R,4S,5S)-1-((S)-2-((1R,2R)-3-(((S)-N-1-(3-(4-(aminoxymethyl)-1H-1,2,3-triazol-1-yl)propylsulfonamido)-1-oxo-3-phenylpropan-2-yl)amino)-1-methoxy-2-methyl-3-oxopropyl)pyrrolidin-1-yl)-3-methoxy-5-methyl-1-oxoheptan-4-yl)(methyl)amino)-3-methyl-1-oxobutane]	found to be cleaved in circulation in mice	MS analysis of linker cleavage of ADC from mice plasma (after administration): cleaved at the sulfonamide and oxime linker groups
CC[C@H](C)[C@@H]([C@@H](CC(=O)N1CCC[C@H]1[C@H](OC)[C@@H](C)C(=O)N[C@@H](Cc1ccccc1)C(=O)N[C@@H](C)COC(=O)NCCOCCN1C(=O)C=CC1=O)OC)N(C)C(=O)[C@@H](N=C(N(C)C)N(C)C)C(C)C [CL-11, (S)-2-((S)-2-((2R,3R)-3-((S)-1-((3R,4S,5S)-4-((S)-2-((bis(dimethylamino)methylene)amino)-N,3-dimethylbutanamido)-3-methoxy-5-methylheptanoyl)pyrrolidin-2-yl)-3-methoxy-2-methylpropanamido)-3-phenylpropanamido)propyl (2-(2-(2,5-dioxo-2,5-dihydro-1H-pyrrol-1-yl)ethoxy)ethyl)carbamate]	stable in circulation in mice	
CC[C@H](C)[C@@H]([C@@H](CC(=O)N1CCC[C@H]1[C@H](OC)[C@@H](C)C(=O)N[C@H](Cc1ccccc1)C(=O)Nc1ccc(CNC(=O)CCCCCN2C(=O)C=CC2=O)cc1)OC)N(C)C(=O)[C@@H](N=C(N(C)C)N(C)C)C(C)C [CL-1, N-(4-((R)-2-((2R,3R)-3-((S)-1-((3R,4S,5S)-4-((S)-2-((bis(dimethylamino)methylene)amino)-N,3-dimethylbutanamido)-3-methoxy-5-methylheptanoyl)pyrrolidin-2-yl)-3-methoxy-2-methylpropanamido)-3-phenylpropanamido)benzyl)-6-(2,5-dioxo-2,5-dihydro-1H-pyrrol-1-yl)hexanamide]	found to be cleaved in circulation in mice	
CC[C@H](C)[C@@H]([C@@H](CC(=O)N1CCC[C@H]1[C@H](OC)[C@@H](C)C(=O)N[C@@H](Cc1ccccc1)C(=O)O)OC)N(C)C(=O)[C@@H](/N=C(\N(C)C)N1CCN(C(=O)CCCCCN2C(=O)C=CC2=O)CC1)C(C)C [NL-4, (S)-2-((2R,3R)-3-((S)-1-((3R,4S,5S)-4-((S)-2-((E)-((dimethylamino)(4-(6-(2,5-dioxo-2,5-dihydro-1H-pyrrol-1-yl)hexanoyl)piperazin-1-yl)methylene)amino)-N,3-dimethylbutanamido)-3-methoxy-5-methylheptanoyl)pyrrolidin-2-yl)-3-methoxy-2-methylpropanamido)-3-phenylpropanoic acid]	stable in circulation in mice	
CC[C@H](C)[C@@H]([C@@H](CC(=O)N1CCC[C@H]1[C@H](OC)[C@@H](C)C(=O)N[C@@H](Cc1ccccc1)C(=O)N(C)c1ccc(CNC(=O)CCCCCN2C(=O)C=CC2=O)cc1)OC)N(C)C(=O)[C@@H](N=C(N(C)C)N(C)C)C(C)C [CL-6, N-(4-((S)-2-((2R,3R)-3-((S)-1-((3R,4S,5S)-4-((S)-2-((bis(dimethylamino)methylene)amino)-N,3-dimethylbutanamido)-3-methoxy-5-methylheptanoyl)pyrrolidin-2-yl)-3-methoxy-2-methylpropanamido)-N-methyl-3-phenylpropanamido)benzyl)-6-(2,5-dioxo-2,5-dihydro-1H-pyrrol-1-yl)hexanamide]		Clearance / PK profile versus unconjugated antibody [1]: caused ADC to be cleared more rapidly than the unconjugated antibody from circulation
CC[C@H](C)[C@@H]([C@@H](CC(=O)N1CCC[C@H]1[C@H](OC)[C@@H](C)C(=O)N[C@@H](Cc1ccccc1)C(=O)NS(=O)(=O)CCCNC(=O)CCCC(=O)ON1C(=O)CCC1=O)OC)N(C)C(=O)[C@@H](N=C(N(C)C)N(C)C)C(C)C [CL-32, N-hydroxysuccinimide (NHS) ester of (S)-2-((bis(dimethylamino)methylene)amino)-1-(((3R,4S,5S)-1-((S)-2-((1R,2R)-3-(((S)-N-1-(3-(4-carboxybutoyl)aminopropylsulfonamido)-1-oxo-3-phenylpropan-2-yl)amino)-1-methoxy-2-methyl-3-oxopropyl)pyrrolidin-1-yl)-3-methoxy-5-methyl-1-oxoheptan-4-yl)(methyl)amino)-3-methyl-1-oxobutane]	stable in circulation in mice	
CC[C@H](C)C([C@@H](CC(=O)N1CCC[C@H]1[C@H](OC)[C@@H](C)C(=O)N[C@@H](Cc1ccccc1)C(=O)NS(=O)(=O)CCCn1cc(CN2C(=O)C=CC2=O)nn1)OC)N(C)C(=O)[C@@H](N=C(N(C)C)N(C)C)C(C)C (stereo partly drawn) [CL-9, (S)-2-((Bis(dimethylamino)methylene)amino)-1-(((3R,4S,5S)-1-((S)-2-((1R,2R)-3-(((S)-N-1-(3-(4-((2,5-dioxo-2,5-dihydro-1H-pyrrol-1-yl)methyl)-1H-1,2,3-triazol-1-yl)propylsulfonamido)-1-oxo-3-phenylpropan-2-yl)amino)-1-methoxy-2-methyl-3-oxopropyl)pyrrolidin-1-yl)-3-methoxy-5-methyl-1-oxoheptan-4-yl)(methyl)amino)-3-methyl-1-oxobutane]		Payload/linker stability in circulation (anti-MMAF versus anti-hIgG assay, words) (single dose 1 mg/kg, plasma over three weeks, 1 mg/kg): no cleavage; also recorded: stable in circulation in mice
CC[C@H](C)[C@@H]([C@@H](CC(=O)N1CCC[C@H]1[C@H](OC)[C@@H](C)C(=O)N[C@@H](Cc1ccccc1)C(=O)O)OC)N(C)C(=O)[C@@H](Nc1nc(C)cc(C(=O)NCCNC(=O)CCCCCN2C(=O)C=CC2=O)n1)C(C)C [NL-38, (S)-2-((2R,3R)-3-((S)-1-((3R,4S,5S)-4-((S)-2-((4-((2-(6-(2,5-dioxo-2,5-dihydro-1H-pyrrol-1-yl)hexanamido)ethyl)carbamoyl)-6-methylpyrimidin-2-yl)amino)-N,3-dimethylbutanamido)-3-methoxy-5-methylheptanoyl)pyrrolidin-2-yl)-3-methoxy-2-methylpropanamido)-3-phenylpropanoic acid]	stable in circulation in mice	
CC[C@H](C)[C@@H]([C@@H](CC(=O)N1CCC[C@H]1[C@H](OC)[C@@H](C)C(=O)N[C@@H](Cc1ccccc1)C(=O)NCCOCCOCCNC(=O)CCN1C(=O)C=CC1=O)OC)N(C)C(=O)[C@@H](N=C(N(C)C)N(C)C)C(C)C [CL-10, (S)-N-((3R,4S,5S)-1-((S)-2-((3R,4R,7S)-7-benzyl-21-(2,5-dioxo-2,5-dihydro-1H-pyrrol-1-yl)-4-methyl-5,8,19-trioxo-2,12,15-trioxa-6,9,18-triazahenicosan-3-yl)pyrrolidin-1-yl)-3-methoxy-5-methyl-1-oxoheptan-4-yl)-2-((bis(dimethylamino)methylene)amino)-N,3-dimethylbutanamide]	stable in circulation in mice	
